These results are taken from patent US20240209028A1, “CNP COMPOUNDS” (priority 2022, published 2024).

Data set [1] is described as follows: PK after i.v. and s.c. administration to domestic LYD pig. The conditions noted are these: female, in vivo. Here is the method:
(§1) The purpose of this study was to investigate pharmacokinetic and pharmacodynamic properties after intravenous (i.v.) and subcutaneous (s.c.) administration to Gottingen Minipig and domestic LYD pig, and to estimate bioavailability after s.c. dosing. Quantitative plasma analysis of CNP and cGMP levels were performed as described in
(§2) Animals and dosing: The pharmacokinetic and pharmacodynamic studies in Gottingen Minipig or domestic LYD pig were conducted at CRO Minerva Imaging or Novo Nordisk A/S, respectively. CNP compounds were dosed to normal female 1) Gottingen minipigs 6-12 months of age with an average weight of 22 kg or 2) domestic LYD pigs 4-5 months of age with and average weight of 80 kg. At least one week prior to dosing, permanent central venous catheters were implanted for blood sampling and intravenous (i.v.) dosing. For subcutaneous (s.c.) dosing, the pigs were ultrasound scanned and the optimal injection area laterally on the neck marked by a permanent tattoo. An insulin pen (NovoPen Echo or NovoPen 4) and insulin needle (NovoFine 32G/4 mm or NovoTwist 32G/5 mm) were used for accurate deposition of the CNP formulations in the subcutaneous fat tissue with the needle perpendicular to the skin.
(§3) CNP compounds were formulated according to the principles in General Methods of Preparation—Method G and were either A) 8 mM sodium phosphate, 250 mM glycerol, pH 6.5, B) 5 mM sodium acetate, 250 mM glycerol, pH 4.0, C) 5 mM sodium acetate, 240 mM propylene glycol, pH=4.0, D) 8 mM sodium phosphate, 250 mM glycerol, pH 7.5 or E) 20 mM sodium phosphate, 223 mM propylene glycol, pH 6.0.
(§4) Intravenously, the CNP compounds were dosed at 30-60 nmol/kg to Minipig and 15-43 nmol/kg to domestic pig using formulations A-E. Subcutaneously, the CNP compounds were dosed at 55-62 nmol/kg to Minipig and 20-30 nmol/kg to domestic pig using formulations A-D.
(§5) Sampling: Blood samples of approximately 1 mL were collected pre dose and up to 14 days post dose into EDTA-coated tubes (8 mM) for cGMP and CNP compound analysis by LC-MS. In few instances, cGMP was only analysed up to 48 hours post dose after intravenous dosing in domestic LYD pig. The blood samples were kept on wet ice for maximum 30 minutes until centrifugation for 10 minutes at 4° C. and minimum 1500G, and the plasma samples were stored at −20° C. until analysis.
Plasma concentration-time profiles were analyzed by non-compartmental PK analysis using Phoenix WinNonlin 8.1, Pharsight Inc., Mountain View, CA, USA. […] S.c. bioavailability (F) was calculated as the dose-normalized AUC (AUC/dose) after s.c. administration divided by the AUC/dose after i.v. administration. […]

Data set [2] is described as follows: PK after i.v. and s.c. administration to Göttingen minipig. The note with it: female, in vivo, Göttingen Minipig. On the procedure:
as §1, §2, §3, §4, §5
Plasma concentration-time profiles were analyzed by non-compartmental PK analysis using Phoenix WinNonlin 8.1, Pharsight Inc., Mountain View, CA, USA. Calculation of the area under the plasma concentration-time curve (AUC) was based on the “linear up log down” method, and uniform weighting was used for estimation of the terminal rate constant (λz). S.c. bioavailability (F) was calculated as the dose-normalized AUC (AUC/dose) after s.c. administration divided by the AUC/dose after i.v. administration. […]

Where [3] appears, read: sc, s.c. bioavailability, read-out: F (%), Subcutaneous PK.

`CCCC[C@@H]1NC(=O)[C@H](CO)NC(=O)CNC(=O)[C@H]([C@@H](C)CC)NC(=O)[C@H](CCCNC(=N)N)NC(=O)[C@H](CC(=O)O)NC(=O)[C@H](CC(C)C)NC(=O)[C@H](CCCCN)NC(=O)[C@H](CC(C)C)NC(=O)CNC(=O)[C@H](Cc2ccccc2)NC(=O)[C@@H](NC(=O)CNC(=O)[C@H](CCCCN)NC(=O)[C@H](CO)NC(=O)[C@H](CC(C)C)NC(=O)CNC(=O)[C@H](CCCCN)NC(=O)[C@H](CCCCN)NC(=O)[C@H](CCC(N)=O)NC(=O)[C@H](C)NC(=O)CNC(=O)[C@H](CCCCN)NC(=O)[C@H](Cc2ccc(O)cc2)NC(=O)[C@H](CCCCN)NC(=O)[C@H](CCCNC(=N)N)NC(=O)[C@H](C)NC(=O)[C@H](CCC(N)=O)NC(=O)COCCOCCNC(=O)COCCOCCNC(=O)CC[C@H](NC(=O)CCCCCCCCCCCCCCCCC(=O)O)C(=O)O)CSSC[C@@H](C(=O)O)NC(=O)CNC(=O)[C@H](CC(C)C)NC(=O)CNC(=O)[C@H](CO)NC1=O` [Compound 0312]: the clearance in data set [1] (iv, read-out: CL (ml/hr/kg), Intravenous PK (converted)) was 1.6 mL/h/kg; in data set [2] (iv, i.v., read-out: CL (ml/hr/kg), Intravenous PK (converted)) it was 0.927 mL/h/kg. Further, the half-life was 32 h in data set [1] (iv, read-out: T½, iv (converted)); 29 h in data set [1] (sc, read-out: T½, sc (converted)); 71 h in data set [2] (iv, i.v., read-out: T½, iv (converted)); 36 h in data set [2] (sc, s.c., read-out: T½, sc (converted)). In addition, the bioavailability in data set [1] (setting [3]) was found to be 11%; in data set [2] (setting [3]) it was 10%.
